Assay results as given in PMC3017026.

Target: amyloid-β 1-42 synthetic peptide

For “recombinant human α-synuclein (from UniProt P37840 1-140) (natural protein)”, the EC50 of the loss of synaptophysin (ELISA) in mouse cortical neurons incubated 24 hours with Aβ1-42 premixed with αSN (2:1); Aβ1-42 alone 50 nM was 5 nM.
